# Source: PubChem BioAssay AID449763 (Sanford-Burnham Center for Chemical Genomics, 2010)
# The list shows a part of the results, in another mix than the full data. Active and inactive are the calls of the source.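 The calls were made as follows: active = at 10 µM dose, activation of 40% or more, normalized to positive control; inactive = the rest.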
# Experiment: PERK-eIF2a-CHOP pathway stimulators – cell-based, CHO-CHOP luciferase reporter, luminescence, uHTS, primary screen (AID 449763);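 also: 100% = tunicamycin at 10 µg/mL and 0% = DMSO alone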
# Settings: UPR activation, at 10 µM, active compounds read high, percent of tunicamycin response over DMSO baseline
# Method in brief: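 Assay system: CHO cells with stable CHOP pathway luciferase reporter; Buffer or medium: F12 plus 10% serum; Times: 16-18 h cell attachment, then 6 h compound exposure, 37 °C; Signal: luciferase luminescence; Read-out basis: percent activation relative to tunicamycin control; Control set: tunicamycin high control, DMSO low control.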
row,Structure (SMILES),activation
1,Cc1cc(C)cc(OP(C)(=O)Nc2ccccn2)c1 (stereo not given),inactive: 0.596%
2,CP(=O)(Nc1cccc(Br)c1)Oc1ccccc1 (stereo not given),inactive: -1.02%
3,Cc1ccc(C)c(NP(C)(=O)Oc2ccccc2)c1 (stereo not given),inactive: 0.237%
4,Cc1cc(C)cc(OP(C)(=O)Nc2ccc(C)cc2C)c1 (stereo not given),inactive: -0.349%
5,CCOC(=O)c1ccc(NP(C)(=O)Oc2cc(C)cc(C)c2)cc1 (stereo not given),inactive: 0.133%
6,COc1ccccc1OP(C)(=O)Nc1cccc(Br)c1 (stereo not given),inactive: -0.0236%
7,CC1=NCCc2c1[nH]c1ccccc21.O=[N+]([O-])c1cc([N+](=O)[O-])c(O)c([N+](=O)[O-])c1,inactive: -0.821%
8,O=C(O)c1cccc(Nc2c([N+](=O)[O-])cc([N+](=O)[O-])cc2[N+](=O)[O-])c1,inactive: 1.33%
9,CCCOc1ccc(NP(C)(=O)Oc2ccc(Cl)cc2)cc1 (stereo not given),inactive: 4.73%
10,CP(=O)(Nc1ccc(SC(F)(F)F)cc1)Oc1ccccc1 (stereo not given),inactive: 1.93%
11,COc1ccccc1OP(C)(=O)Nc1c(C)cccc1C (stereo not given),inactive: 0.898%
12,CN1CCCCC1COC(=O)C1(O)c2ccccc2CCc2ccccc21 (stereo not given),inactive: 2.1%
13,CCOC(=O)C(CC)C1=NC(C)(C)Cc2ccccc21.O=[N+]([O-])c1cc([N+](=O)[O-])c(O)c([N+](=O)[O-])c1 (stereo not given),inactive: 0.776%
14,CC1=C2N=C(C=C3N=C(C(C)=C4[N-][C@@](C)([C@@H]5N=C1[C@](C)(CCC(=O)NC[C@@H](C)OP(=O)([O-])O[C@H]1[C@@H](O)[C@@H](n6cnc7cc(C)c(C)cc76)O[C@@H]1CO)[C@H]5CC(N)=O)[C@@](C)(CC(N)=O)[C@@H]4CCC(N)=O)[C@@](C)(CC(N)=O)[C@@H]3CCC(N)=O)C(C)(C)[C@@H]2CCC(N)=O.[C-]#N.[Co+3],inactive: -3.11%
15,O=[N+]([O-])c1cc([N+](=O)[O-])c(Nc2nnnn2CCO)c([N+](=O)[O-])c1,inactive: 1.23%
16,Cc1nc2ccc3ccccc3c2s1.O=[N+]([O-])c1cc([N+](=O)[O-])c(O)c([N+](=O)[O-])c1,inactive: 3.56%
17,O=[N+]([O-])c1cc([N+](=O)[O-])c(-c2cnn(-c3ccccc3)c2)c([N+](=O)[O-])c1,inactive: 9.16%
18,O=[N+]([O-])c1cc([N+](=O)[O-])c(-n2nnc3ccccc32)c([N+](=O)[O-])c1,inactive: 3.2%
19,CP(=O)(Nc1ccccn1)Oc1ccc(Cl)cc1 (stereo not given),inactive: 0.63%
20,CCOP(C)(=S)SCC(=O)NC(C)C(=O)O (stereo not given),inactive: 0.465%
